Results reported in ChEMBL document CHEMBL1155284, “Synthesis and antibacterial activity of some new thiadiaza/triazaphospholes, thiadiaza/triaza/tetrazaphosphinines and thiadiaza/tetrazaphosphepines containing 1,2,4-triazinone moiety” (Eur J Med Chem, 2009).
Values after ≈ are worked out from the molar mass of the structure shown.

Tested on: Artemia salina
Test: Toxicity against Artemia salina larvae after 24 hrs
Type: organism-based
Details: in vivo
How it was run: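 Brine shrimp lethality test. Artemia salina eggs were hatched 48 h at 37 °C in filtered sea salt solution (38 g/L) with constant oxygen to give nauplii. Stock was 10 mg compound in 2 mL DMSO, diluted to 80, 40, 20, 10 and 5 µg/mL in triplicate vials, about 10 nauplii each, with a DMSO control. LC50 is the mean of three values.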

CCOP1(=O)Nc2nnc(C)c(=O)n2NC1C (stereo unspecified)
LC50: 32.3 µg/mL (≈ 125 µM)
